Here are results for 2 compounds from ChEMBL document CHEMBL1127444, “Aza-tricyclic substance P antagonists” (J Med Chem, 1994).

Sequences of proteins named here, by UniProt entry; tags and fusion partners are left off.
UniProt P25103, whole entry: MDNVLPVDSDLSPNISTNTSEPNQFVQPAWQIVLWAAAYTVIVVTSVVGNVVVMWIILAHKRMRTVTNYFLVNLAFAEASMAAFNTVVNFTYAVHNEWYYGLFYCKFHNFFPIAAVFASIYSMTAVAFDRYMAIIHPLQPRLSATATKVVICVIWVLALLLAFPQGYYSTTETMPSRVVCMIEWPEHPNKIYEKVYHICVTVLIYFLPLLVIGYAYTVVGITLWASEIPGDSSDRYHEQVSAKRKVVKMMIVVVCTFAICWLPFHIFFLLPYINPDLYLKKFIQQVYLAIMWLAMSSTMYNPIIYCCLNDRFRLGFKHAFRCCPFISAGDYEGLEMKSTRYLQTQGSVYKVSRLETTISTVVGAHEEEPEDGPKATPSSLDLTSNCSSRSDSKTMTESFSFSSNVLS

For the assay, the target named is Substance-P receptor (Homo sapiens, UniProt P25103). Nature of the assay: Tested in vitro for the binding affinity towards NK1 receptor in human IM-9 cells using [125I]-labeled bolton-hunter substance P as ligand. The class given is cell-based. The procedure, abridged: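 IC50 from six-point concentration–response curves, each concentration in duplicate. Mean ± SEM of three separate experiments.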

Each structure is given as a SMILES string.

The IC50 is the concentration at which inhibition is half-maximal. Compound `COc1ccccc1CNC1C2CC3CCCC(C2)N3[C@H]1C(c1ccccc1)c1ccccc1` (some centres not stated) yielded an IC50 of 4.1 nM. As to `COc1ccccc1CN[C@H]1C2C3CCCC2CN(C3)[C@H]1C(c1ccccc1)c1ccccc1`, the IC50 came out at 3.3 nM.
